Reference: paper PMC7479175, “Selection of Potent Inhibitors of Soluble Epoxide Hydrolase for Usage in Veterinary Medicine” (Frontiers in Veterinary Science, 2020)

The chains behind the UniProt entries cited, without tags or fusion partners. Residues count along the entry.
UniProt A0ABI7ZL20, 1-554: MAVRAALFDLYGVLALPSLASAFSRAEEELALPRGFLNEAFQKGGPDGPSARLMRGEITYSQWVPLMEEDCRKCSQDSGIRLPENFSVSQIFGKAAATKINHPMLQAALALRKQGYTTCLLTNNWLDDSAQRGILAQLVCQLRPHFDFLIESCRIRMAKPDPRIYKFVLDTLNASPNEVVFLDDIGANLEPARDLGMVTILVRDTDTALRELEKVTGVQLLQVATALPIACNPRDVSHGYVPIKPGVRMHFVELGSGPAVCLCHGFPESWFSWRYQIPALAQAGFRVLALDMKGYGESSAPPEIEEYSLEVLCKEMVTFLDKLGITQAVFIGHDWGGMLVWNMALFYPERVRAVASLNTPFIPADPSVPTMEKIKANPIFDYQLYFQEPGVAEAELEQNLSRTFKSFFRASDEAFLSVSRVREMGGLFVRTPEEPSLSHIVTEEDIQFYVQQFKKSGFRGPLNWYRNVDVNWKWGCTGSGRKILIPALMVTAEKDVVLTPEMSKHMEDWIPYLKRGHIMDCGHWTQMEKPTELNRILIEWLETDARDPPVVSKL
UniProt A0A8I3NJL8, 1-556: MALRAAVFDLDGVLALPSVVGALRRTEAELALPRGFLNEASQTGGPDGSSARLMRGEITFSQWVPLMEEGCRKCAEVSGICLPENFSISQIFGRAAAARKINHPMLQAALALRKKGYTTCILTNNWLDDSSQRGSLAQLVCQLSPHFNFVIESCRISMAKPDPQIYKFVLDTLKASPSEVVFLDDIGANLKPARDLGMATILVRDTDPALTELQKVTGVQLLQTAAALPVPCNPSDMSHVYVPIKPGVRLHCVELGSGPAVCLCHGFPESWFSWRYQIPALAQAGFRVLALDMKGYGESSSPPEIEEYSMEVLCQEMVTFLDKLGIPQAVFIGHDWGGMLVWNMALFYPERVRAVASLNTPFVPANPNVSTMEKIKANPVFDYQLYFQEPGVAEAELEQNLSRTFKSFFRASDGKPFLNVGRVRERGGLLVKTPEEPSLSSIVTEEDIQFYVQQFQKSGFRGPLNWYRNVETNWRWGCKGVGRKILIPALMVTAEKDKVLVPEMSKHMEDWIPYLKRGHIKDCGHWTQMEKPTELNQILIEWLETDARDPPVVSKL
UniProt F7C407, 1-555: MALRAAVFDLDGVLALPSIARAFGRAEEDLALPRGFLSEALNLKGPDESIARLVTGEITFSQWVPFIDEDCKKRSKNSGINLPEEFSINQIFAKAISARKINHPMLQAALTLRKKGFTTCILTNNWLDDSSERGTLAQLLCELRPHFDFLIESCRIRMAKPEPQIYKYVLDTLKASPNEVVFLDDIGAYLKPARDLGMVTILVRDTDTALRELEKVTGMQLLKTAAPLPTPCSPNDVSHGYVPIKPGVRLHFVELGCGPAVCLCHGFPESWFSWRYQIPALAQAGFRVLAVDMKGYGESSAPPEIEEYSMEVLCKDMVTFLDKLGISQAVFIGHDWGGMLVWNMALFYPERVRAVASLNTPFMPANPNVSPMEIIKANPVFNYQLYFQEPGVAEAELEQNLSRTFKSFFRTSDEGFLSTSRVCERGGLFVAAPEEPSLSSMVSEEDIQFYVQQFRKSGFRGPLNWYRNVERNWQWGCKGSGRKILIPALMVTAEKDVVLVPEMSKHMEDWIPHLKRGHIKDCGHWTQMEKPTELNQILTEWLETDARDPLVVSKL

Experiments:
Assay type in all cases: biochemical
Cat sEH [1] = biological target: T1, Cat sEH (Felis catus, UniProt A0ABI7ZL20); experiment: Primary screen (end point) of the sEH inhibitor library, PHOME substrate; conditions: [I] = 100 nM, primary end-point screening
Dog sEH [2] = biological target: T2, Dog sEH (Canis lupus familiaris, UniProt A0A8I3NJL8); experiment: as above; conditions: [I] = 100 nM, primary end-point screening
Horse sEH [3] = biological target: T3, Horse sEH (Equus caballus, UniProt F7C407); experiment: as above; conditions: [I] = 100 nM, primary end-point screening
Cat sEH [4] = biological target: T1, Cat sEH; experiment: Secondary screen (kinetic mode), PHOME substrate; conditions: [I] = 100 nM, secondary kinetic mode screening
Dog sEH [5] = biological target: T2, Dog sEH; experiment: Secondary screen (kinetic mode), PHOME substrate; conditions: [I] = 100 nM, secondary kinetic mode screening
Horse sEH [6] = biological target: T3, Horse sEH; experiment: Secondary screen (kinetic mode), PHOME substrate; conditions: [I] = 100 nM, secondary kinetic mode screening

O=C(NC1CCCCC1)NC12CC3CC(CC(C3)C1)C2
Cat sEH Inhibition (%) P. (Cat sEH [1]): < 90% | Dog sEH Inhibition (%) P. (Dog sEH [2]): < 90% | Horse sEH Inhibition (%) P. (Horse sEH [3]): 102% | Cat sEH Inhibition (%) S. (Cat sEH [4]): 108% | Dog sEH Inhibition (%) S. (Dog sEH [5]): 85% | Horse sEH Inhibition (%) S. (Horse sEH [6]): 87%

O=C(O)CCCCCCCCCCCNC(=O)Nc1ccc(OC(F)(F)F)cc1
Cat sEH Inhibition (%) P. (Cat sEH [1]): 93% | Dog sEH Inhibition (%) P. (Dog sEH [2]): < 90% | Horse sEH Inhibition (%) P. (Horse sEH [3]): < 90% | Cat sEH Inhibition (%) S. (Cat sEH [4]): 102% | Dog sEH Inhibition (%) S. (Dog sEH [5]): 86% | Horse sEH Inhibition (%) S. (Horse sEH [6]): 85%

O=C(NC1CCC(Oc2cccc(C(=O)O)c2)CC1)NC12CC3CC(CC(C3)C1)C2 (stereo not drawn)
Cat sEH Inhibition (%) P. (Cat sEH [1]): 95% | Dog sEH Inhibition (%) P. (Dog sEH [2]): 90% | Horse sEH Inhibition (%) P. (Horse sEH [3]): 99% | Cat sEH Inhibition (%) S. (Cat sEH [4]): 99% | Dog sEH Inhibition (%) S. (Dog sEH [5]): 91% | Horse sEH Inhibition (%) S. (Horse sEH [6]): 91%

CC(C)(C)OC(=O)N1CCC(NC(=O)NC23CC4CC(CC(C4)C2)C3)CC1
Cat sEH Inhibition (%) P. (Cat sEH [1]): 93% | Dog sEH Inhibition (%) P. (Dog sEH [2]): 93% | Horse sEH Inhibition (%) P. (Horse sEH [3]): 103% | Cat sEH Inhibition (%) S. (Cat sEH [4]): 99% | Dog sEH Inhibition (%) S. (Dog sEH [5]): 86% | Horse sEH Inhibition (%) S. (Horse sEH [6]): 89%

CCOC(=O)c1ccc(COC(=O)CCCNC(=O)NC23CC4CC(CC(C4)C2)C3)cc1
Cat sEH Inhibition (%) P. (Cat sEH [1]): < 90% | Dog sEH Inhibition (%) P. (Dog sEH [2]): 90% | Horse sEH Inhibition (%) P. (Horse sEH [3]): < 90% | Cat sEH Inhibition (%) S. (Cat sEH [4]): 100% | Dog sEH Inhibition (%) S. (Dog sEH [5]): 95% | Horse sEH Inhibition (%) S. (Horse sEH [6]): 91%

O=C(Nc1ccc(OC(F)(F)F)cc1)N[C@H]1CC[C@H](Oc2ccc(-c3nnn[nH]3)cc2)CC1 (relative stereo)
Cat sEH Inhibition (%) P. (Cat sEH [1]): 100% | Dog sEH Inhibition (%) P. (Dog sEH [2]): 92% | Horse sEH Inhibition (%) P. (Horse sEH [3]): 105% | Cat sEH Inhibition (%) S. (Cat sEH [4]): 100% | Dog sEH Inhibition (%) S. (Dog sEH [5]): 84% | Horse sEH Inhibition (%) S. (Horse sEH [6]): 92%

CNC(=O)c1ccc(O[C@H]2CC[C@H](NC(=O)NC34CC5CC(CC(C5)C3)C4)CC2)cc1 (relative stereo)
Cat sEH Inhibition (%) P. (Cat sEH [1]): < 90% | Dog sEH Inhibition (%) P. (Dog sEH [2]): 92% | Horse sEH Inhibition (%) P. (Horse sEH [3]): 90% | Cat sEH Inhibition (%) S. (Cat sEH [4]): 102% | Dog sEH Inhibition (%) S. (Dog sEH [5]): 83% | Horse sEH Inhibition (%) S. (Horse sEH [6]): 88%

Cc1ccc(S(=O)(=O)N2CCC(C(=O)NCC3CCCCC3)CC2)c(C)c1
Cat sEH Inhibition (%) P. (Cat sEH [1]): 98% | Dog sEH Inhibition (%) P. (Dog sEH [2]): 109% | Horse sEH Inhibition (%) P. (Horse sEH [3]): 103% | Cat sEH Inhibition (%) S. (Cat sEH [4]): 101% | Dog sEH Inhibition (%) S. (Dog sEH [5]): 88% | Horse sEH Inhibition (%) S. (Horse sEH [6]): 97%

CS(=O)(=O)NCCCCCOCCCCCNC(=O)NC12CC3CC(CC(C3)C1)C2
Cat sEH Inhibition (%) P. (Cat sEH [1]): 93% | Dog sEH Inhibition (%) P. (Dog sEH [2]): < 90% | Horse sEH Inhibition (%) P. (Horse sEH [3]): 95% | Cat sEH Inhibition (%) S. (Cat sEH [4]): 91% | Dog sEH Inhibition (%) S. (Dog sEH [5]): 94% | Horse sEH Inhibition (%) S. (Horse sEH [6]): 84%

CCOCCOCCOc1cccc(NC(=O)NC23CC4CC(CC(C4)C2)C3)c1
Cat sEH Inhibition (%) P. (Cat sEH [1]): 101% | Dog sEH Inhibition (%) P. (Dog sEH [2]): 90% | Horse sEH Inhibition (%) P. (Horse sEH [3]): 110% | Cat sEH Inhibition (%) S. (Cat sEH [4]): 99% | Dog sEH Inhibition (%) S. (Dog sEH [5]): 87% | Horse sEH Inhibition (%) S. (Horse sEH [6]): 92%

O=C(NCCCC(=O)OCc1ccccc1)NC12CC3CC(CC(C3)C1)C2
Cat sEH Inhibition (%) P. (Cat sEH [1]): 102% | Dog sEH Inhibition (%) P. (Dog sEH [2]): < 90% | Horse sEH Inhibition (%) P. (Horse sEH [3]): 99% | Cat sEH Inhibition (%) S. (Cat sEH [4]): 98% | Dog sEH Inhibition (%) S. (Dog sEH [5]): 96% | Horse sEH Inhibition (%) S. (Horse sEH [6]): 89%

CCCCCCCCNC(=O)NC1CCN(C(=O)CC)CC1
Cat sEH Inhibition (%) P. (Cat sEH [1]): < 90% | Dog sEH Inhibition (%) P. (Dog sEH [2]): 94% | Horse sEH Inhibition (%) P. (Horse sEH [3]): < 90% | Cat sEH Inhibition (%) S. (Cat sEH [4]): 90% | Dog sEH Inhibition (%) S. (Dog sEH [5]): 82% | Horse sEH Inhibition (%) S. (Horse sEH [6]): 90%

Cc1ccc(S(=O)(=O)N2CCC(C(=O)NC3CCCCCCC3)CC2)c(C)c1
Cat sEH Inhibition (%) P. (Cat sEH [1]): 96% | Dog sEH Inhibition (%) P. (Dog sEH [2]): 98% | Horse sEH Inhibition (%) P. (Horse sEH [3]): 100% | Cat sEH Inhibition (%) S. (Cat sEH [4]): 99% | Dog sEH Inhibition (%) S. (Dog sEH [5]): 95% | Horse sEH Inhibition (%) S. (Horse sEH [6]): 89%
